The nature of the series: Pharmacokinetics of MMMDPB and DPB after oral MMMDPB or NaMMMDPB and intravenous NaMMMDPB. Also on record: species or system Beagle dogs. The following applies: dog, in vivo, analyte DPB. The protocol: In accordance with the present invention, pharmacokinetic parameters were calculated using standard non-compartmental methods, as implemented in WinNonlin™ 4.0.1. The mean, standard deviation (SD) and percent coefficient (CV (%)) of variations were calculated for plasma concentrations of MMMDPB and DPB for each sampling time and for each treatment. The mean, SD and CV (%) were used to calculate the AUC0-t (µg.h/mL), Cmax (µg/ml) (the maximum observed concentration), Tmax (hours) (the time to reach that peak concentration) and Kel (the elimination rate constant) for each animal and each analyte.
Areas under the concentration-time curves (AUC) were determined with respect to each animal that received oral administration of either NaDPB, NaMMMDPB or their free acid counterparts. AUC0-t was calculated using the linear trapezoidal rule, which employs an approximate integration formula. The area of each trapezoid was calculated, and the sum of all the areas of all the trapezoids yielded an estimate of the true area under the curve. (See, Gibaldi et al. Pharmacokinetics. 2nd Ed. Marcel Dekker, Inc., 1982; Yeh et al., A comparison of numerical integrating algorithms by trapezoidal, lagrange, and spline approximations. J. Pharmacokinet Biopharm. 6: 79 (1978), the disclosure of which is herein incorporated by reference.) Cmax and Tmax were then determined for each concentration vs. time profile. Elimination rate constant (Kel) was calculated using regression analyses on the natural log (In) of plasma concentration values (y) versus time (x).
This study compared the pharmacokinetics of MMDPB and DPB after oral administrations of MMDPB (30 mg/kg) and sodium salt of MMMDPB (30 mg/kg) in dogs. Oral suspensions of MMMDPB and sodium salt of MMDPB were prepared by suspending either MMMDPB or sodium salt of MMMDPB in 2 % (w/v) aqueous carobxymethyl cellulose (CMC). […]
Blood samples were obtained pre-dose and 0.25, 0.5, 1, 2, 3, 4, 6, 9, 12, 15, 18, and 24 hours after dosing. […] MMMDPB and DPB were quantified in plasma using HPLC with Tandem Mass Spectrometry detection (LLOQ=0.25 µg/mL). […]

In general, half-life refers to the time in which the quantity being followed falls by half. Where the note is “Oral, 30 mg/kg”, `COCN1C(=O)NC(=O)C(c2ccccc2)(c2ccccc2)C1=O` [MMMDPB, monomethoxymethyl-5,5-diphenyl barbituric acid] gave a half-life of 4.59 h. As for `COCN1C(=O)NC(=O)C(c2ccccc2)(c2ccccc2)C1=O` [NaMMMDPB, sodium monomethoxymethyl-5,5-diphenyt barbiturate], the half-life runs as follows: (iv, 15 mg/kg, IV infusion) 2.26 h; (po, 30 mg/kg) 3.15 h.

The record behind these values is patent EP1781294B1, “COMPOSITION FOR IMPROVED BIOAVAILABILITY AND ENHANCED BRAIN DELIVERY OF 5,5-DIPHENYL […]” (priority 2004, dated 2006).
